These compounds were tested on JAK1-dependent STAT6 phosphorylation downstream of IL-13 stimulation in BEAS-2B cells.

**Q.** How did the IC50 turn out when COC(=O)C1C2CCC1CN(c1cccn3nc(Nc4cnn(CC(=O)N5CCN(C)CC5)c4)nc13)C2 (stereo not drawn) [Example 80, methyl 3-[2-[[1-[2-(4-methylpiperazin-1-yl)-2-oxo-ethyl]pyrazol-4-yl]amino]-[1,2,4]triazolo[1,5-a]pyridin-8-yl]-3-azabicyclo[3.2.1]octane-8-carboxylate] was run?
**A.** 83.5 nM

**Q.** With CN(C1CCN(C(=O)Cn2cc(Nc3nc4c(N5CC6CCC(C5)N6C(=O)CCC(F)(F)F)cccn4n3)cn2)CC1)C1COC1 [Example 11, 4,4,4-trifluoro-1-[3-[2-[[1-[2-[4-[methyl(oxetan-3-yl)amino]-1-piperidyl]-2-oxo-ethyl]pyrazol-4-yl]amino]-[1,2,4]triazolo[1,5-a]pyridin-8-yl]-3,8-diazabicyclo[3.2.1]octan-8-yl]butan-1-one] as the compound, how does the IC50 read?
**A.** 126 nM

**Q.** With O=C(Cn1cc(Nc2nc3c(N4CC5CCC(C4)N5C(=O)N4CC(C(F)(F)F)C4)cccn3n2)cn1)N1CCC(CN2CCOCC2)CC1 [Example 121, 1-[4-(morpholinomethyl)-1-piperidyl]-2-[4-[[8-[8-[3-(trifluoromethyl)azetidine-1-carbonyl]-3,8-diazabicyclo[3.2.1]octan-3-yl]-[1,2,4]triazolo[1,5-a]pyridin-2-yl]amino]pyrazol-1-yl]ethanone] as the compound, how does the IC50 read?
**A.** 101 nM

**Q.** Which IC50 does the source give for CCN1CCN(C(=O)Cn2cc(Nc3nc4c(N5CC6CCC(C5)N6C(=O)N5CC(C(F)(F)F)C5)cccn4n3)cn2)CC1 [Example 59, 1-(4-ethylpiperazin-1-yl)-2-[4-[[8-[8-[3-(trifluoromethyl)azetidine-1-carbonyl]-3,8-diazabicyclo[3.2.1]octan-3-yl]-[1,2,4]triazolo[1,5-a]pyridin-2-yl]amino]pyrazol-1-yl]ethanone] here?
**A.** 37.9 nM

**Q.** With Cc1ccc(CO[C@H]2[C@@H]3CC[C@H]2CN(c2cccn4nc(Nc5cnn(CC(=O)N6CCN(C)CC6)c5)nc24)C3)cn1 [Example 151, 1-(4-methylpiperazin-1-yl)-2-[4-[[8-[rac-(1S,5R)-8-[(6-methyl-3-pyridyl)methoxy]-3-azabicyclo[3.2.1]octan-3-yl]-[1,2,4]triazolo[1,5-a]pyridin-2-yl]amino]pyrazol-1-yl]ethanone] as the compound, how does the IC50 read?
**A.** 23.9 nM

**Q.** How did the IC50 turn out when CN1CCN(C(=O)Cn2cc(Nc3nc4c(N5CC6CCC(C5)N6S(=O)(=O)Cc5ccccc5Cl)cccn4n3)cn2)CC1 [Example 161, 2-[4-[[8-[8-[(2-chlorophenyl)methylsulfonyl]-3,8-diazabicyclo[3.2.1]octan-3-yl]-[1,2,4]triazolo[1,5-a]pyridin-2-yl]amino]pyrazol-1-yl]-1-(4-methylpiperazin-1-yl)ethanone] was run?
**A.** 98.7 nM

**Q.** For CN1CCN(C(=O)Cn2cc(Nc3nc4c(N5CC6CCC(C5)N6S(=O)(=O)c5cccc(F)c5)cccn4n3)cn2)CC1 [Example 156, 2-[4-[[8-[8-(3-fluorophenyl)sulfonyl-3,8-diazabicyclo[3.2.1]octan-3-yl]-[1,2,4]triazolo[1,5-a]pyridin-2-yl]amino]pyrazol-1-yl]-1-(4-methylpiperazin-1-yl)ethanone], which IC50 is on record?
**A.** 61.7 nM

**Q.** CN1CCN(C(=O)Cn2cc(Nc3nc4c(C5=CC6CCC(C5)N6C(=O)CCC(F)(F)F)cccn4n3)cn2)CC1 (stereo not drawn) [Example 26, 4,4,4-trifluoro-1-[3-[2-[[1-[2-(4-methylpiperazin-1-yl)-2-oxo-ethyl]pyrazol-4-yl]amino]-[1,2,4]triazolo[1,5-a]pyridin-8-yl]-8-azabicyclo[3.2.1]oct-3-en-8-yl]butan-1-one] was tested. Which IC50 did it give?
**A.** 112 nM

**Q.** CN1CCN(C(=O)Cn2cc(Nc3nc4c(N5CC6CCC(C5)N6Cc5ccc(Cl)cc5)cccn4n3)cn2)CC1 [Example 22, 2-[4-[[8-[8-[(4-chlorophenyl)methyl]-3,8-diazabicyclo[3.2.1]octan-3-yl]-[1,2,4]triazolo[1,5-a]pyridin-2-yl]amino]pyrazol-1-yl]-1-(4-methylpiperazin-1-yl)ethanone; formic acid] was tested. Which IC50 did it give?
**A.** 199 nM

**Q.** CC(C(=O)N1CCN(C)CC1)n1cc(Nc2nc3c(N4CC5CCC(C4)N5C(=O)CCC(F)(F)F)cccn3n2)cn1 (stereo not drawn) [Example 103, 4,4,4-trifluoro-1-[3-[2-[[1-[1-methyl-2-(4-methylpiperazin-1-yl)-2-oxo-ethyl]pyrazol-4-yl]amino]-[1,2,4]triazolo[1,5-a]pyridin-8-yl]-3,8-diazabicyclo[3.2.1]octan-8-yl]butan-1-one] was tested. Which IC50 did it give?
**A.** 40 nM

**Q.** CN1CCN(C(=O)Cn2cc(Nc3nc4c(N5C[C@H]6CC[C@@H](C5)[C@H]6OCc5cccnc5)cccn4n3)cn2)CC1 [Example 84, 1-(4-methylpiperazin-1-yl)-2-[4-[[8-[(1S,5R)-8-(3-pyridylmethoxy)-3-azabicyclo[3.2.1]octan-3-yl]-[1,2,4]triazolo[1,5-a]pyridin-2-yl]amino]pyrazol-1-yl]ethanone] was tested. Which IC50 did it give?
**A.** 17.1 nM

**Q.** For CN1CCN(C(=O)Cn2cc(Nc3nc4c(N5CC6CCCC(C5)N6C(=O)[C@H]5C[C@@H](C(F)(F)F)C5)cccn4n3)cn2)CC1 [Example 65, 1-(4-methylpiperazin-1-yl)-2-[4-[[8-[9-[3-(trifluoromethyl)cyclobutanecarbonyl]-3,9-diazabicyclo[3.3.1]nonan-3-yl]-[1,2,4]triazolo[1,5-a]pyridin-2-yl]amino]pyrazol-1-yl]ethanone], which IC50 is on record?
**A.** 29.5 nM

**Q.** With O=C(Cn1cc(Nc2nc3c(N4CC5CCC(C4)N5C(=O)CCC(F)(F)F)cccn3n2)cn1)N1CCN(C2CCC2)CC1 [Example 152, 1-[3-[2-[[1-[2-(4-cyclobutylpiperazin-1-yl)-2-oxo-ethyl]pyrazol-4-yl]amino]-[1,2,4]triazolo[1,5-a]pyridin-8-yl]-3,8-diazabicyclo[3.2.1]octan-8-yl]-4,4,4-trifluoro-butan-1-one] as the compound, how does the IC50 read?
**A.** 22.6 nM

**Q.** Which IC50 does the source give for CN1CCN(C(=O)Cn2cc(Nc3nc4c(N5CC6CCC(C5)N6C(=O)c5ccccc5CC#N)cccn4n3)cn2)CC1 [Example 68] here?
**A.** 113 nM

**Q.** For CN1CCN(C(=O)Cn2cc(Nc3nc4c(N5CC6CCC(C5)N6C(=O)C5CCSC5)cccn4n3)cn2)CC1 (stereo not drawn) [Example 50, 1-(4-methylpiperazin-1-yl)-2-[4-[[8-[8-(tetrahydrothiophene-3-carbonyl)-3,8-diazabicyclo[3.2.1]octan-3-yl]-[1,2,4]triazolo[1,5-a]pyridin-2-yl]amino]pyrazol-1-yl]ethanone], which IC50 is on record?
**A.** 34.7 nM

**Q.** CN1CCN(C(=O)Cn2cc(Nc3nc4c(N5CC6CCC(C5)C6C(=O)N5CC(C(F)(F)F)C5)cccn4n3)cn2)CC1 (stereo not drawn) [Example 43, 1-(4-methylpiperazin-1-yl)-2-(4-[[8-(8-[[3-(trifluoromethyl)azetidin-1-yl]carbonyl]-3-azabicyclo[3.2.1]octan-3-yl)-[1,2,4]triazolo[1,5-a]pyridin-2-yl]amino]-1H-pyrazol-1-yl)ethan-1-one] was tested. Which IC50 did it give?
**A.** 58.1 nM

**Q.** With CN1CCN(C(=O)Cn2cc(Nc3nc4c(N5CC6CCC(C5)N6S(=O)(=O)Cc5cccc(Cl)c5)cccn4n3)cn2)CC1 [Example 165, 2-[4-[[8-[8-[(3-chlorophenyl)methylsulfonyl]-3,8-diazabicyclo[3.2.1]octan-3-yl]-[1,2,4]triazolo[1,5-a]pyridin-2-yl]amino]pyrazol-1-yl]-1-(4-methylpiperazin-1-yl)ethanone] as the compound, how does the IC50 read?
**A.** 38.2 nM

**Q.** With CN1CCN(C(=O)Cn2cc(Nc3nc4c(N5CC6CCC(C5)N6CC5(CC#N)CC5)cccn4n3)cn2)CC1 [Example 72, 2-[1-[[3-[2-[[1-[2-(4-methylpiperazin-1-yl)-2-oxo-ethyl]pyrazol-4-yl]amino]-[1,2,4]triazolo[1,5-a]pyridin-8-yl]-3,8-diazabicyclo[3.2.1]octan-8-yl]methyl]cyclopropyl] acetonitrile] as the compound, how does the IC50 read?
**A.** 55.3 nM

**Q.** For CN(C)C(=O)CN1CCN(CC2CCN(C(=O)Cn3cc(Nc4nc5c(N6CC7CCC(C6)N7C(=O)N6CC(C(F)(F)F)C6)cccn5n4)cn3)CC2)CC1 [Example 81, N,N-dimethyl-2-[4-[[1-[2-[4-[[8-[8-[3-(trifluoromethyl)azetidine-1-carbonyl]-3,8-diazabicyclo[3.2.1]octan-3-yl]-[1,2,4]triazolo[1,5-a]pyridin-2-yl]amino]pyrazol-1-yl]acetyl]-4-piperidyl]methyl]piperazin-1-yl]acetamide], which IC50 is on record?
**A.** 590 nM

**Q.** N#CC1(CNC2CCN(C(=O)Cn3cc(Nc4nc5c(N6CC7CCC(C6)N7C(=O)N6CC(C(F)(F)F)C6)cccn5n4)cn3)CC2)CC1 [Example 119, 1-[[[1-[2-[4-[[8-[8-[3-(trifluoromethyl)azetidine-1-carbonyl]-3,8-diazabicyclo[3.2.1]octan-3-yl]-[1,2,4]triazolo[1,5-a]pyridin-2-yl]amino]pyrazol-1-yl]acetyl]-4-piperidyl]amino]methyl] cyclopropanecarbonitrile] was tested. Which IC50 did it give?
**A.** 331 nM

**Q.** CN1CCN(C(=O)Cn2cc(Nc3nc4c(N5CC6CCC(C5)N6C(=O)c5ccns5)cccn4n3)cn2)CC1 [Example 87, 2-[4-[[8-[8-(isothiazole-5-carbonyl)-3,8-diazabicyclo[3.2.1]octan-3-yl]-[1,2,4]triazolo[1,5-a]pyridin-2-yl]amino]pyrazol-1-yl]-1-(4-methylpiperazin-1-yl)ethanone] was tested. Which IC50 did it give?
**A.** 25 nM

**Q.** Which IC50 does the source give for CN1CCN(C(=O)Cn2cc(Nc3nc4c(N5CC6CCCC(C5)N6C(=O)[C@H]5C[C@H](C(F)(F)F)C5)cccn4n3)cn2)CC1 [Example 40, 1-(4-methylpiperazin-1-yl)-2-[4-[[8-[9-[3-(trifluoromethyl)cyclobutanecarbonyl]-3,9-diazabicyclo[3.3.1]nonan-3-yl]-[1,2,4]triazolo[1,5-a]pyridin-2-yl]amino]pyrazol-1-yl]ethanone] here?
**A.** 21.4 nM

**Q.** For CN1CCN(C(=O)Cn2cc(Nc3nc4c(N5C[C@H]6CC[C@@H](C5)[C@H]6OCc5ccc(F)nc5)cccn4n3)cn2)CC1 [Example 162, 1-(4-methylpiperazin-1-yl)-2-[4-[[8-[rac-(1S,5R)-8-[(6-fluoro-3-pyridyl)methoxy]-3-azabicyclo[3.2.1]octan-3-yl]-[1,2,4]triazolo[1,5-a]pyridin-2-yl]amino]pyrazol-1-yl]ethanone], which IC50 is on record?
**A.** 85.5 nM

**Q.** With CCc1cnn([C@@]2(CC#N)[C@@H]3CC[C@H]2CN(c2cccn4nc(Nc5cnn(CC(=O)N6CCN(C)CC6)c5)nc24)C3)c1 [Example 117, 2-[(1R,5S)-8-(4-ethylpyrazol-1-yl)-3-[2-[[1-[2-(4-methylpiperazin-1-yl)-2-oxo-ethyl]pyrazol-4-yl]amino]-[1,2,4]triazolo[1,5-a]pyridin-8-yl]-3-azabicyclo[3.2.1]octan-8-yl]acetonitrile] as the compound, how does the IC50 read?
**A.** 462 nM

— patent publication US10189836B2, “Therapeutic compounds, compositions and methods of use thereof” (Genentech, Inc., priority 2015, dated 2019)
